Binding of CDR-mutated scFvs to a peptide of the spike HR2 region

Antigen: PDVDLGDISGINAS, a 14-residue peptide of the SARS-CoV-2 spike HR2 region.

Parent scFv Ab-14: VH joined to VL by three GGGGS repeats. Changes lie in the heavy chain CDRs alone.
VH: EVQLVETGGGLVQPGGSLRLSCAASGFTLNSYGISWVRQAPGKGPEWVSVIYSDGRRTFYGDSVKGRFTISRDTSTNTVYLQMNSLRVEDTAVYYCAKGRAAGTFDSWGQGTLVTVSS
VL: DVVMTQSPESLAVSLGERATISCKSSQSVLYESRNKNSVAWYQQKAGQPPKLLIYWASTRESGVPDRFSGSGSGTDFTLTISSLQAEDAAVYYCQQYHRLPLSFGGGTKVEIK

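The starting antibody came from a phage panning campaign against this peptide. Variants in AAYL49 differ from the parent at up to three CDR positions; double and triple changes were sampled at random. In AlphaSeq, yeast of one mating type display the scFv and yeast of the other type display the target. Pairs that bind mate more often; barcode pairs of the diploids are counted by sequencing. A regression on co-assayed BCL2-family reference pairs converts the normalised counts of each replicate to an apparent Kd. There are three technical replicates.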

Substitutions are numbered in sequence along the VH above, starting at 1 (not Kabat). This list gathers variants with a substitution at F105 (VH, numbered from residue 1). Kd is apparent (estimated from mating counts) and averaged on the log scale over replicates with a signal. Smaller is tighter. An entry "nd" has no value in the source: the pair was not observed among the diploids in any replicate. This suggests poor binding but is not conclusive. Three control strains display no target. For library AAYL49, 15% of the pairings with them gave a signal, with a median of 11 µM and one signal in twenty below 680 nM, so weak values seen in few replicates may be background. The control count says in how many pairings with the empty strains this scFv gave a signal.

For G33F F59T F105H, the assay gave 400 µM (3 of 3 replicates; controls 4 of 9). Variant R56S F105D gave 45 nM (3 of 3 replicates; controls 1 of 9). Variant Y32T V64S F105R showed nd (0 of 3 replicates; controls 0 of 9). Variant F59W V64Y F105V gave nd (0 of 3 replicates; controls 0 of 9). Variant N30M G55I F105D showed 9.5 µM (1 of 3 replicates; controls 4 of 9). Variant T28L V64F F105G gave nd (0 of 3 replicates; controls 0 of 9).

With S35F R56M F105N the result was 14 µM (1 of 3 replicates; controls 3 of 9). Variant T28N G99R F105Q showed 3.9 µM (1 of 3 replicates; controls 1 of 9). Variant V50S Y52D F105H gave nd (0 of 3 replicates; controls 0 of 9). For T28Y F105Y, the assay gave nd (0 of 3 replicates; controls 1 of 9). With Y52V D62W F105Y the result was nd (0 of 3 replicates; controls 0 of 9). Variant G33P F105G gave 10 µM (1 of 3 replicates; controls 2 of 9).

Variant I51T R57S F105D showed 120 µM (3 of 3 replicates; controls 5 of 9). With S53W A102D F105H the result was nd (0 of 3 replicates; controls 1 of 9). With T28G G33E F105D the result was 16 µM (1 of 3 replicates; controls 4 of 9). With D54S T58I F105N the result was nd (0 of 3 replicates; controls 0 of 9). With Y32K A101W F105T the result was nd (0 of 3 replicates; controls 0 of 9). With F59S F105L the result was 260 nM (3 of 3 replicates; controls 0 of 9).

For D62L F105M, the assay gave 530 nM (1 of 3 replicates; controls 0 of 9). Variant R57I V64L F105G showed nd (0 of 3 replicates; controls 1 of 9). Variant G55V S63H F105K showed 6.1 µM (2 of 3 replicates; controls 1 of 9). With L29G I34N F105K the result was 15 µM (1 of 3 replicates; controls 2 of 9). Variant Y52T F105H S107G gave nd (0 of 3 replicates; controls 0 of 9). With V64Y F105C the result was 15 µM (3 of 3 replicates; controls 7 of 9).

Variant Y32K G103S F105E gave 4.0 µM (1 of 3 replicates; controls 3 of 9). Variant V64L A102P F105H gave 3.9 mM (1 of 3 replicates; controls 4 of 9). Variant Y32W A102F F105Y showed nd (0 of 3 replicates; controls 0 of 9). For S31E Y60C F105K, the assay gave 430 nM (3 of 3 replicates; controls 1 of 9). With R56Q G99N F105Y the result was 6.1 nM (3 of 3 replicates; controls 1 of 9). With L29W G61N F105V the result was 7.5 µM (1 of 3 replicates; controls 0 of 9).

Variant I51V T58P F105V gave 20 µM (2 of 3 replicates; controls 1 of 9). With Y32R Y52F F105W the result was nd (0 of 3 replicates; controls 3 of 9). With T28H T104Q F105N the result was nd (0 of 3 replicates; controls 1 of 9). With G26D I34M F105G the result was nd (0 of 3 replicates; controls 0 of 9). Variant R56I G61P F105D showed 200 nM (3 of 3 replicates; controls 0 of 9). With T58I G61C F105R the result was 2.4 µM (3 of 3 replicates; controls 4 of 9).

With R100P F105M the result was nd (0 of 3 replicates; controls 2 of 9). Variant I34Q G99P F105P gave nd (0 of 3 replicates; controls 0 of 9). Variant G33K K65I F105W showed 27 µM (3 of 3 replicates; controls 7 of 9). With S63M K65C F105A the result was 240 µM (2 of 3 replicates; controls 3 of 9). With V64K F105L D106F the result was 3.8 µM (1 of 3 replicates; controls 2 of 9). Variant G33Q Y52T F105S gave 44 µM (1 of 3 replicates; controls 0 of 9).

Variant D54V F105K D106N gave 37 µM (2 of 3 replicates; controls 2 of 9). For I34G G55S F105D, the assay gave 39 µM (2 of 3 replicates; controls 6 of 9). Variant S31H V64M F105G gave 1.1 µM (2 of 3 replicates; controls 0 of 9). Variant G55Y G103L F105H gave nd (0 of 3 replicates; controls 0 of 9). With S53C V64F F105G the result was 4.0 µM (1 of 3 replicates; controls 0 of 9). For G26I S53I F105K, the assay gave nd (0 of 3 replicates; controls 0 of 9).

Variant Y60W G103R F105C gave nd (0 of 3 replicates; controls 1 of 9). Variant L29M F59V F105H gave 170 nM (3 of 3 replicates; controls 1 of 9). With G33F S35D F105R the result was nd (0 of 3 replicates; controls 1 of 9).

A selection of 4 entries from above:

changes,Kd,seen in,control signals
Y52T F105H S107G,nd,0 of 3,0 of 9
R56Q G99N F105Y,6.1 nM,3 of 3,1 of 9
G33Q Y52T F105S,44 µM,1 of 3,0 of 9
N30M G55I F105D,9.5 µM,1 of 3,4 of 9

For reference, the parent read 4.4 nM as the reference entry and 13 µM (one replicate of three) as a member of this library.

Data: MIT Lincoln Laboratory AlphaSeq set, Engelhart et al. 2022, doi:10.1038/s41597-022-01779-4, as distributed in FLAb.